The test system of the data set is O=C(O)c1ccccc1. The data set can be described thus: purified protein, by the assay type. The following applies: other: purified enzyme; mean of three determinations; pH 7.5; 25.0 °C.

What is called Km is the concentration of substrate that gives half-maximal velocity.

Consider “carboxylic acid reductase (aryl-aldehyde oxidoreductase) (Nocardia iowensis)”, for which the Michaelis-Menten constant (Km) was found to be 645 ± 75 µM.
